Assay results published in ChEMBL document CHEMBL3272034.

Test: Dissociation constant, pKa of the compound

With `CN(CCCl)CCCl` the pKa was 6.45.
